Molecular target: A1 adenosine receptor (Homo sapiens, UniProt P30542)
Assay: fus1-LacZ β-galactosidase assay in yeast expressing human A1 adenosine receptor
Conditions: NECA concentration 10^−8 M

Protein sequences, listed by entry. Tags and fused reporters are not part of them.
UniProt P30542, whole entry: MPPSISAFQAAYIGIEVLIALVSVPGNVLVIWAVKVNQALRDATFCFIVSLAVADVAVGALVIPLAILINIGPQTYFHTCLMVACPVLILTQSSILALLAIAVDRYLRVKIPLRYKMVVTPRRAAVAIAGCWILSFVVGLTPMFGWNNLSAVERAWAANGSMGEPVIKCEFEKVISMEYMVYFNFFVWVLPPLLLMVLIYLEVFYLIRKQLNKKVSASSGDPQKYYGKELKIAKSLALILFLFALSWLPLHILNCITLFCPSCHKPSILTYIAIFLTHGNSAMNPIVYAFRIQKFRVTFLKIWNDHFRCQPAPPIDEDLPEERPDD

With `CCNC(=O)[C@H]1O[C@@H](n2cnc3c(N)ncnc32)[C@H](O)[C@@H]1O` the “stimulation of β-galactosidase activity” value was “approximately 2 fold”.

— patent US6878716B1, “Compounds specific to adenosine A1 receptor and uses thereof” (OSI Pharmaceuticals, Inc., priority 1998, dated 2005)
